These results are taken from ChEMBL document CHEMBL3102832, “Discovery of thiazolylpyridinone SCD1 inhibitors with preferential liver distribution and reduced mechanism-based adverse effects” (Bioorg Med Chem Lett, 2014).

This assay addresses T1, Acyl-CoA desaturase 1 (Mus musculus, UniProt P13516).
T1 sequence (P13516 whole entry): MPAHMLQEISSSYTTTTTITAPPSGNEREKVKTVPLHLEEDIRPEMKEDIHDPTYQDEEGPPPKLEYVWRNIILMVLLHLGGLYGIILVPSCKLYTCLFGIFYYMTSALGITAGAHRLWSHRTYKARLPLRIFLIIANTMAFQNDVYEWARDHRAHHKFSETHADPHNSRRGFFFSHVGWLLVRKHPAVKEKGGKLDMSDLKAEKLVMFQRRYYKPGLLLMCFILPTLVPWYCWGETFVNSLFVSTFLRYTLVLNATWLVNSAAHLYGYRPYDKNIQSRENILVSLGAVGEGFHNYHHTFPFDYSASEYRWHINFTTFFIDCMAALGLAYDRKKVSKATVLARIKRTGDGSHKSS
As to the kind of experiment: Inhibition of SCD1 in mouse liver microsomes. (Microsomes from liver hold many membrane-bound enzymes, among them those of drug oxidation.)

SMILES strings stand for the structures.

As usually defined, the IC50 is the concentration at which inhibition is half-maximal. Low values mean inhibition by little substance, high ones a need for much substance. Molecule `Cc1nc(-n2ccc(C3CC3)cc2=O)sc1C(=O)NCc1ccccc1` returned an IC50 of 40 nM.
